For the experiment, the target named is T1, Trifunctional purine biosynthetic protein adenosine-3 (Homo sapiens, UniProt P22102).
T1 sequence (P22102 whole entry): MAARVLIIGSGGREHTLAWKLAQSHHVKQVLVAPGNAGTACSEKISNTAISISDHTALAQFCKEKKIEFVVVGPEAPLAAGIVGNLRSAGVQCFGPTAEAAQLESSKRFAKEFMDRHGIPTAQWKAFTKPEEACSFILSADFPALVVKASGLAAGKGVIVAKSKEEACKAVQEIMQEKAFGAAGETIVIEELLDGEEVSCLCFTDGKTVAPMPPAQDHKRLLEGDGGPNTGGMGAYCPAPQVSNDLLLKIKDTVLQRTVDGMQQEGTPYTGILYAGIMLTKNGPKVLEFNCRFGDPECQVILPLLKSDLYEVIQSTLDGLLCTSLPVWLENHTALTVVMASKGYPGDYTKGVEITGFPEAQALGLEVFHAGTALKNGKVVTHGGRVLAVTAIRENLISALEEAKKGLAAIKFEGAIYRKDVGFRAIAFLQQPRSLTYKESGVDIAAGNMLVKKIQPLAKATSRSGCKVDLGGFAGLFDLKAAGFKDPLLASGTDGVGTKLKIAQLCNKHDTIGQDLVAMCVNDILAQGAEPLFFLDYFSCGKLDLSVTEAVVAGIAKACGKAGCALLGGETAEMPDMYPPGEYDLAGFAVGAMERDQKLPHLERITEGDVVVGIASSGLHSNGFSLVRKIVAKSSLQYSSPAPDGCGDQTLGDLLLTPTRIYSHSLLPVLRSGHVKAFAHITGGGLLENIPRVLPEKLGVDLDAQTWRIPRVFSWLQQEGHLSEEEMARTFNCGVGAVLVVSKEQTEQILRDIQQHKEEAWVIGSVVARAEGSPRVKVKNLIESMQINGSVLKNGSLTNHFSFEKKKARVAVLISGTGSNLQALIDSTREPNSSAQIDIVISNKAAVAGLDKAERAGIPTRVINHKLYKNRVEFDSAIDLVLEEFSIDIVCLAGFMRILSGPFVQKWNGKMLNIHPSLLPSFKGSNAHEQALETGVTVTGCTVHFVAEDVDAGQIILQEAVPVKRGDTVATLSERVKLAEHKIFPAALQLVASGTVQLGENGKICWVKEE
The experiment in a line: Inhibition of human recombinant GAR Tfase.

Usually Ki stands for the dissociation constant of the complex between target and ligand, obtained from inhibition or displacement.

`Nc1nc(N)c(CCCC(C(=O)C(F)(F)F)c2ccc(C(=O)NC(CCC(=O)O)C(=O)O)cc2)c(=O)[nH]1` (stereo unspecified): the Ki turned out to be 30 nM.

Values taken from ChEMBL document CHEMBL1147678, “Discovery of a potent, nonpolyglutamatable inhibitor of glycinamide ribonucleotide transformylase” (J Med Chem, 2006).
